Data: US20170296682A1, “DERIVATIVES OF DIBENZOTHIOPHENE IMAGING OF alpha-7 NICOTINIC ACETYLCHOLINE RECEPTORS” (THE JOHNS HOPKINS UNIVERSITY, priority 2015, published 2017)

By UniProt entry, the sequences of proteins in these tests, tags left out. Residues count along the entry.
UniProt P36544, 23-502 limits assumed: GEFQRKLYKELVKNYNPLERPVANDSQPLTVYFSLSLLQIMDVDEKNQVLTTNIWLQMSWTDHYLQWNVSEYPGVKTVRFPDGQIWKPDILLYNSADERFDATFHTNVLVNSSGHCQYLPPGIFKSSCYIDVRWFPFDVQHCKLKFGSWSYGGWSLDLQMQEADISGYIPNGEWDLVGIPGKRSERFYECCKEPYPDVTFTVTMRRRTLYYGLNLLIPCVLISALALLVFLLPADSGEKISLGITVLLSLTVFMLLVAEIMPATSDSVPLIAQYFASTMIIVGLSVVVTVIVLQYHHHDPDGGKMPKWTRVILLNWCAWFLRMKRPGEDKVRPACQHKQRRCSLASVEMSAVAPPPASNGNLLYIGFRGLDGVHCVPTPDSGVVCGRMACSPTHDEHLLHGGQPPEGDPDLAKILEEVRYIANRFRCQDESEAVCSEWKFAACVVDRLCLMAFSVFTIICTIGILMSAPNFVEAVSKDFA
UniProt P49582, 23-502 limits assumed: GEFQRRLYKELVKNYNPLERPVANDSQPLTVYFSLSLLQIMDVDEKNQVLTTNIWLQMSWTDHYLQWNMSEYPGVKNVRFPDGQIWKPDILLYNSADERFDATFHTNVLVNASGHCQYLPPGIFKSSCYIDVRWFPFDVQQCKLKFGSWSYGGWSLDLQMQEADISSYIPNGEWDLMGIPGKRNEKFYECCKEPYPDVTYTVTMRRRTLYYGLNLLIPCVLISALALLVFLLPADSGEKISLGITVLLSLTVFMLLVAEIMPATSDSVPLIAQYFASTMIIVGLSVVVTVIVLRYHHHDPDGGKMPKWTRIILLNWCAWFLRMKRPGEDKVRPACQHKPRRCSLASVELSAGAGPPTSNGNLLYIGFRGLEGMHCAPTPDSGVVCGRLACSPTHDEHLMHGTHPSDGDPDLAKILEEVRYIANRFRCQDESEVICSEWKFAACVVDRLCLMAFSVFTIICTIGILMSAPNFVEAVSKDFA

What was measured:
[1] = target: α7-nAChR (Homo sapiens, UniProt P36544); details: read-out: α7-nAChR, Ki; previously published values, varied assay conditions; cited from earlier work
[2] = target: T1, α7-nAChR (Mus musculus, UniProt P49582); details: taken from references or estimated as VT/VND -1 or (cortex uptake/cerebellum uptake) -1; cited from earlier work
[3] = tested on: α7-nAChR; details: taken from references or estimated as VT/VND -1 or (cortex uptake/cerebellum uptake) -1; cited from earlier work
[4] = target: T1, α7-nAChR; experiment: Biodistribution of [125I]14 in mice, baseline and SSR180711 blocking; details: 180 min post injection

| Molecule | Ki [1] [nM] | BPND in cortex, Mice [2] | BPND in cortex, Monkey or Pig [3] | accumulation of 125I radioactivity, cerebellum [4] [%1.D./g] | accumulation of 125I radioactivity, frontal cortex [4] [%1.D./g] | accumulation of 125I radioactivity, hippocampus [4] [%1.D./g] | accumulation of 125I radioactivity, superior colliculus ([4]; tail vein) [% injected dose/g tissue] |
| --- | --- | --- | --- | --- | --- | --- | --- |
| [11CH3]Nc1cccc(C(=O)OC2CN3CCC2CC3)c1 (stereo not shown) | 40.6 | 0.4 | 0.4 |  |  |  |  |
| [^125I] 3-(1 A-Diazabicyclo[3.2.2]nonan-4-yl)-6-iododibenzo[b,d]thiophene 5,5-Dioxide |  |  |  | 0.76 | 2.74 | 2.65 | 3.2 |
